Experimental data published in ChEMBL document CHEMBL4425142, “Inhibitors of diacylglycerol lipases in neurodegenerative and metabolic disorders” (Bioorg Med Chem Lett, 2016).
pIC50: −log10 of the molar value.

Chains of the proteins cited; added tags and fusions are not shown.
UniProt Q9Y4D2, whole entry, looked up: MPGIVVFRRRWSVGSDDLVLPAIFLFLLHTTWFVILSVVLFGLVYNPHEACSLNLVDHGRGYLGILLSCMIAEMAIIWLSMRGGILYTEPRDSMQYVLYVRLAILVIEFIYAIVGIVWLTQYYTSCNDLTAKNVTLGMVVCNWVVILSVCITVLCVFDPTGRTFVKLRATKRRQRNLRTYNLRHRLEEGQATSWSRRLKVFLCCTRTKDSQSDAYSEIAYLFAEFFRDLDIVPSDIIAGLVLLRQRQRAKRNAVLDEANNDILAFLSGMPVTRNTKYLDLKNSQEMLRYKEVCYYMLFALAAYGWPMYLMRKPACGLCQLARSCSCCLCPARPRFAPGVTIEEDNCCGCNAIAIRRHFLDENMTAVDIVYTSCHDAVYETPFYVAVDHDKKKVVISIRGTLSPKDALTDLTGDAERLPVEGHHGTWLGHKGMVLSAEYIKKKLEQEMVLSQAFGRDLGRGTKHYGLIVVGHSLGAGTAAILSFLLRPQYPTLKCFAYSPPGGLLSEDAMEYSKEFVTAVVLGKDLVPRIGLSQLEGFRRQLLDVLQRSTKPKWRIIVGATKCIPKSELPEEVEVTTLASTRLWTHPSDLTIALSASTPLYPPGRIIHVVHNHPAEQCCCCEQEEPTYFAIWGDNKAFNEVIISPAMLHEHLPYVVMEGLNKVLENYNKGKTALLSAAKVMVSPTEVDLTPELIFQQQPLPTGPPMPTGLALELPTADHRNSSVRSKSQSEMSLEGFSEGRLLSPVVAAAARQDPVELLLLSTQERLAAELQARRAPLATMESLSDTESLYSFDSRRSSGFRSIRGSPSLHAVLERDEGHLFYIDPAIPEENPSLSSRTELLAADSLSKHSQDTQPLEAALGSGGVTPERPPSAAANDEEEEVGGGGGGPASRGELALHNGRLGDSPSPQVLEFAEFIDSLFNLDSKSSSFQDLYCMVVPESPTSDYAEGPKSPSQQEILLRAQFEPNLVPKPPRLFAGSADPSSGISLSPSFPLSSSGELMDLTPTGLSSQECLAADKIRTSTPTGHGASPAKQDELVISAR

Target: Diacylglycerol lipase-alpha (Homo sapiens, UniProt Q9Y4D2)

## CCCCCCC/C=C\CCCCCCCC(=O)OC(COC(C)C)COP(C)(=O)F (stereo unspecified)
  pIC50: 6.16
